Results taken from US9334286B2, “Pharmacologically active compounds” (Cancer Research Technology Limited, priority 2012, dated 2016).

The chains behind the UniProt entries cited, without tags or fusion partners. Where a name states a change or a piece, a line headed by the entry shows the natural chain unless it says otherwise.
UniProt P33981: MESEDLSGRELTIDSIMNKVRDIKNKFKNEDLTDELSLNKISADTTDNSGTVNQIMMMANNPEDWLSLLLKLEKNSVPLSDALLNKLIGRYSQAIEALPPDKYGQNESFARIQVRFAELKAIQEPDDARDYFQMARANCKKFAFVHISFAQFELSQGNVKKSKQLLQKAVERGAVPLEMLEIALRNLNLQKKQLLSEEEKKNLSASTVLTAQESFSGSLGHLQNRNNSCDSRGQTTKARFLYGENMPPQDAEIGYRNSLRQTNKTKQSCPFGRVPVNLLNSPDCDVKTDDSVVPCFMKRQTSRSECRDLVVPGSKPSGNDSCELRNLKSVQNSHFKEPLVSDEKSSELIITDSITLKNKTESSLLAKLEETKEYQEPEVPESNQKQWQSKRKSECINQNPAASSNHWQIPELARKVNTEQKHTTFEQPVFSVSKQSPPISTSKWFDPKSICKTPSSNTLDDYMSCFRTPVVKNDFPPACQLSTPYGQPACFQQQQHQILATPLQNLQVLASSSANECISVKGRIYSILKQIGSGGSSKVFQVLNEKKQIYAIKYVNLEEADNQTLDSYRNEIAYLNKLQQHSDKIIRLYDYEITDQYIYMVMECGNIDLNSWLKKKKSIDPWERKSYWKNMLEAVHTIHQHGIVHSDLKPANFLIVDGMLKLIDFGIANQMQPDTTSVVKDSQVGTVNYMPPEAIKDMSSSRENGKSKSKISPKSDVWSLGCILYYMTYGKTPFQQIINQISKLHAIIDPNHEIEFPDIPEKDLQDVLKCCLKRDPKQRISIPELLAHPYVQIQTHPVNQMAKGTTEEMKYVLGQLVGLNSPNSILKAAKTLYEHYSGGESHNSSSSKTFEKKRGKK

Target: full length MPS1 (Homo sapiens (Human), UniProt P33981)
Experiment: Measurement of inhibition of MPS1 kinase (Caliper EZ reader, fluorescent labelled peptide H236)
Format: biochemical
Settings: MPS1 IC50, full length MPS1 12.5 nM or 3 nM, peptide H236 5 μM, ATP 10 μM, 60 min at room temperature
Procedure: The reaction was carried out for 60 min at room temperature and stopped by the addition of buffer (10 μl) containing 20 mM EDTA, 0.05% (v/v) Brij-35, in 0.1M HEPES-buffered saline (Free acid, Sigma, UK). The plate was read on a Caliper EZ reader II (Caliper Life Sciences).
The reader provides a Software package (‘Reviewer’) which converts the peak heights into % conversion by measuring both product and substrate peak and also allows selection of control well which represent 0% and 100% inhibition respectively. The % inhibition of the compounds is calculated relative to the means of selected control wells. IC50s are determined by testing the compounds at a range of concentrations from 0.25 nM-100 μM. The % inhibitions at each concentration are then fitted to a 4 parameter logistic fit: y=(a+((b−a)/(1+((c/x^d)))) where a=asym min, b=asym max, c=IC50 and d=hill coefficient

| Structure (SMILES) | pIC50 |
| --- | --- |
| CNc1ccc(-c2ccc3cnc(Nc4ccc(-c5cnc(C)n5C)cc4OC)cc3c2)cn1 [Example 114, N-(4-(1,2-dimethyl-1H-imidazol-5-yl)-2-methoxyphenyl)-6-(6-(methylamino)pyridin-3-yl)isoquinolin-3-amine] | 7.68 |
| COc1cc(-c2cnc(C)n2CC2CCNCC2)ccc1Nc1cc2cc(-c3cnn(CC(C)(C)O)c3)ccc2cn1 [Example 110, 1-(4-(3-((2-Methoxy-4-(2-methyl-1-(piperidin-4-ylmethyl)-1H-imidazol-5-yl)phenyl)amino)-isoquinolin-6-yl)-1H-pyrazol-1-yl)-2-methylpropan-2-ol] | 8.30 |

pIC50: −log10 of the molar value.
